{"source": "patent US20170235917A1", "about": "“SYSTEMS AND METHODS FOR MONITORING AND CONTROLLING A CARD[…] OF A SUBJECT” (THE GENERAL HOSPITAL CORPORATION, priority 2014, published 2017)", "settings": "X = H (HR); mean ± SD, five piglets", "method": "Five neonatal Yorkshire Duroc piglets of 10+/−3 d of age weighting 2.4+/−0.6 kg were pre-anesthetized with ketamine (33 mg/kg) and atropine (0.05 mg/kg), intubated, and anesthetized using 1.5-3.0% isoflurane while mechanically ventilated. Core body temperature was kept at 38+/−0.5° C. BP, HR, arterial O2 saturation, end-tidal CO2, fraction of inspired O2, and pulmonary compliance were continuously monitored. HR beyond 250 bpm was captured using the PC-Vet wireless ECG system or direct counting. The animals received intravenous heparin (200 units/kg/h), physiologic saline (10 mL/kg/h), and 10 g/dL of dextrose-water to adjust serum glucose levels using Genie Plus syringe pumps validated for stability of infusion rate. Serum electrolytes, base excess (−6 to +6), pH (7.20-7.45), partial arterial O2 pressure (80-120 mmHg) and partial arterial CO2 pressure (35-45 mmHg), and arterial O2 saturation (90-100%) were maintained in the target ranges using sodium bicarbonate, potassium chloride, lactated Ringer's solution, and ventilatory changes, respectively. […] The baseline measurements were recorded after a 15-min postsurgical stabilization period, followed by the escalation of dose, and a 15-min washout period after the discontinuation of the medication. […]"}
{"compound": "CNC[C@H](O)c1ccc(O)c(O)c1", "note": "[epinephrine]", "values": [{"measurement": "tD (delay)", "value": "25.1 ± 24.8", "unit": "s"}]}
